Results published in paper PMC6745270 (Neuropharmacology, 2019).

Test: Phase I metabolic stability in rat liver microsomes
Type: in vitro ADME
Details: rat liver microsomes fortified with NADPH, 60 min incubation, 10 μM compound

## Buprenorphine [reference compound]
  % intact remaining: < 1%
